For four substances, IC50 results are on record in US20090105278A1, “Selective inhibitors of human corticosteroid syntheses” (Universitat Des Saarlandes, priority 2004, published 2009).

Sequences of proteins named here, by UniProt entry; tags and fusion partners are left off. A change or cut given only in a name is not applied to a line headed by its entry.
UniProt P11511: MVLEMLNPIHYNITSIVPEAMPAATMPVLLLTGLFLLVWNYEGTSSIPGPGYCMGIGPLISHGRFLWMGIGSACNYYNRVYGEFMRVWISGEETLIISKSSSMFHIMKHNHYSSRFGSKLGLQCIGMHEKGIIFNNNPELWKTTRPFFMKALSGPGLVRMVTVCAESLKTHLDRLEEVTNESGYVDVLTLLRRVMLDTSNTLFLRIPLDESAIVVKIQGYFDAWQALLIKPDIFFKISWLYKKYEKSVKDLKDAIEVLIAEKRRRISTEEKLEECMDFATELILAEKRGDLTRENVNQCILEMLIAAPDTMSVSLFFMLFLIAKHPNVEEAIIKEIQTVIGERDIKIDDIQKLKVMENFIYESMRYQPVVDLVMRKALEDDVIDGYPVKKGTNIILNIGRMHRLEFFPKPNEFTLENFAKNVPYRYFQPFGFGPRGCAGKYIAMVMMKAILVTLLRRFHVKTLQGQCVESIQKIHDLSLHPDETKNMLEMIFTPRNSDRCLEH

Usually pIC50 stands for −log10 of the IC50, conventionally taken in molar units.

pIC50: −log10 of the molar value. Where “and” joins values, the source holds several entries; their conditions need not be identical. Equal entries are not always repeated.

In one test the target is T1, human CYP11B1 (Homo sapiens, UniProt P15538).
T1 sequence (P15538 25-503): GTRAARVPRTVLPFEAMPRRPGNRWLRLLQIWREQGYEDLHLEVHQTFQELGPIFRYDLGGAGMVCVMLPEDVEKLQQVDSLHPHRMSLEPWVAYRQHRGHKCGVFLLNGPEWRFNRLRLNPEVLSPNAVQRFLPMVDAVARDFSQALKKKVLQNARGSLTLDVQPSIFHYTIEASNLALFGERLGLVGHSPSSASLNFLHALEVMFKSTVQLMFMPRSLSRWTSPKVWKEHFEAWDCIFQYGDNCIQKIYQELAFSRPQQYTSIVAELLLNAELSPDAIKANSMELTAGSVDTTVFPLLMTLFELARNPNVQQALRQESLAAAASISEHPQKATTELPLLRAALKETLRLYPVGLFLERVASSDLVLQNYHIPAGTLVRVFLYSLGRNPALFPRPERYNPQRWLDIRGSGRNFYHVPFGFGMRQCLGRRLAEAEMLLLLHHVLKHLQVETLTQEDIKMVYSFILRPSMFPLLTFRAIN
The test is described as follows: V79 MZh 11B1 cells inhibition test. As to conditions: read-out: IC50 V79 11B1 hCYP11B1; hamster fibroblasts which express human CYP11B1; deoxycorticosterone substrate 100 nM.

Another test deals with T2, human CYP11B2 (Homo sapiens, UniProt P19099).
T2 sequence (P19099 25-503): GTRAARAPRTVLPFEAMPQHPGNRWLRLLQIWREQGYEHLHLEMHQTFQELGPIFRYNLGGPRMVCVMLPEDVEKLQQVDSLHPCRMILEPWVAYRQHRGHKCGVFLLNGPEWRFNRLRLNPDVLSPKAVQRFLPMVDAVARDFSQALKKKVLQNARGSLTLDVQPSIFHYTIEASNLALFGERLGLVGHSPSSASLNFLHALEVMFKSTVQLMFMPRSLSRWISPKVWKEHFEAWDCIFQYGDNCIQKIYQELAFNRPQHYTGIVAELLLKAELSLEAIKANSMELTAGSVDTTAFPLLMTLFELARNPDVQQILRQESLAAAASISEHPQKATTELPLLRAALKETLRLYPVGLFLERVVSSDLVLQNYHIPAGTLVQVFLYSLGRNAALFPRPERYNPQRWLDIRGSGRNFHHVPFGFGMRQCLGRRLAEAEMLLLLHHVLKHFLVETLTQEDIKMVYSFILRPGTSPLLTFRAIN
The test is described as follows: V79 MZh 11B2 cells inhibition test. Also on record: expressed in transfected cells; host or cells: V79 MZh11B2 (Chinese hamster lung fibroblasts). Format: cell-based. As to conditions: hamster fibroblasts which express human CYP11B2; deoxycorticosterone substrate 100 nM; read-out: IC50 V79 11B2 hCYP11B2.

The target in the next test is T3, human placental CYP19 (Homo sapiens, UniProt P11511).
T3 construct: The enzyme was obtained from the microsome fraction of fresh human placenta; from tissue; host or cells: human placenta, microsomal fraction
The test is described as follows: IC50 of CYP19 (human placental microsomes). The test is classed as biochemical.

On to “5-[(Z)-3,4-Dihydronaphth-1(2H)-ylidenemethyl]-1H-imidazolium oxalate [Compound 41b]”, for which the pIC50 on human CYP11B1 is 8.48; on human CYP11B2, 8.02.

For the substance “5-[(Z)-(5-Fluoro-2,3-dihydro-1H-indene-1-ylidene)methyl]-1H-imidazolium oxalate [Compound 47b]”, the pIC50 was 7.95 at human CYP11B1, 7.70 on human placental CYP19 and 7.86 on human CYP11B2.

As to “5-[(Z)-(5-Chloro-2,3-dihydro-1H-indene-1-ylidene)methyl]-1H-imidazolium oxalate [Compound 48b]”, the pIC50 on human CYP11B1 was 7.70 and 7.71; on human CYP11B2 it was 8.40 and 8.43.

For the substance “5-[(Z)-(5-Bromo-2,3-dihydro-1H-indene-1-ylidene)methyl]-1H-imidazolium oxalate [Compound 49b]”, the pIC50 at human placental CYP19 was 7.00.
